Reference: patent US6552079B2, “Integrin antagonists” (Eli Lilly and Company, priority 1996, dated 2003)

Sequences of proteins named here, by UniProt entry; tags and fusion partners are left off. Residues count along the entry.
UniProt P05106, 27-788 limits assumed: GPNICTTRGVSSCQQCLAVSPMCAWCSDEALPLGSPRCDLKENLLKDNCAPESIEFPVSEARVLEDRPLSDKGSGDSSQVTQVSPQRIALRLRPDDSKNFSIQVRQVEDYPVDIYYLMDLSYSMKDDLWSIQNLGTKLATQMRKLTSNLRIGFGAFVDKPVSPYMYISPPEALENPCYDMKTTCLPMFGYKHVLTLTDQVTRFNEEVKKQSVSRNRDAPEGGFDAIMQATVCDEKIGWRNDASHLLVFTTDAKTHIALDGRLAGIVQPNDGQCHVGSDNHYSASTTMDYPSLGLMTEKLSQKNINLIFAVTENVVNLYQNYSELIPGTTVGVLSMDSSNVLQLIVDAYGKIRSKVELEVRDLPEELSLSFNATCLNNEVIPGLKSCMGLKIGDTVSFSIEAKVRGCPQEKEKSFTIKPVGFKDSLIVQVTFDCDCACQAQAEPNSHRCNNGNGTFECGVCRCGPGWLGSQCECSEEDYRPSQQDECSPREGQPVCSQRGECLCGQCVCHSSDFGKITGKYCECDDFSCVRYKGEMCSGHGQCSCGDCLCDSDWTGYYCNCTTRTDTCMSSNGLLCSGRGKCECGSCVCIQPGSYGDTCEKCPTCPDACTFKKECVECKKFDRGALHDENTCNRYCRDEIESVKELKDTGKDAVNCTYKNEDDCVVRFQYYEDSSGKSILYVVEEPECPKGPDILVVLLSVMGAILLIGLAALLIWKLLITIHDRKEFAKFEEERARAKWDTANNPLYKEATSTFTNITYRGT
UniProt P08514, 32-887 limits assumed: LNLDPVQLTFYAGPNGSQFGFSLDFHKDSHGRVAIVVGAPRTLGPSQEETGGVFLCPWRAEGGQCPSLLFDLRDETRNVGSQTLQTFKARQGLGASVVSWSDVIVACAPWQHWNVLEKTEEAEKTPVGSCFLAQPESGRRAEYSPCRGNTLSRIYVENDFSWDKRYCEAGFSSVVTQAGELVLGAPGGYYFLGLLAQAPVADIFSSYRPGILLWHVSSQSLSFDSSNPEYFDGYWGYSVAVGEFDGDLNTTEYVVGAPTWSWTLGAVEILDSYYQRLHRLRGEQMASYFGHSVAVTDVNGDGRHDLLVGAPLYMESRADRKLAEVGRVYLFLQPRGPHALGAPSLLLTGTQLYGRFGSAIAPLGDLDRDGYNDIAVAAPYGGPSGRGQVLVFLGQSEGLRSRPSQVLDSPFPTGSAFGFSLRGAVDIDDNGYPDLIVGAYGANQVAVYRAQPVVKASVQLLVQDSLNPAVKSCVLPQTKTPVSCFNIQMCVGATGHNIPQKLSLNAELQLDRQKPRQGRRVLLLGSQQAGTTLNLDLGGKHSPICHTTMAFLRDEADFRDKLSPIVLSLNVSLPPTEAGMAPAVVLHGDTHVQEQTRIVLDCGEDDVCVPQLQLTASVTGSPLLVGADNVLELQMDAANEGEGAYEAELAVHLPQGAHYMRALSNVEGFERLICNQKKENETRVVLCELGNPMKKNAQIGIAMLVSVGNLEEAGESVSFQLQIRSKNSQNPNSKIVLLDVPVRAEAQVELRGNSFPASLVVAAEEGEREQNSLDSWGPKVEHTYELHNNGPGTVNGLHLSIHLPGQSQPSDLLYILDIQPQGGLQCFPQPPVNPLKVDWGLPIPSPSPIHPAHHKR
UniProt P08514, 891-1039 partner limits assumed: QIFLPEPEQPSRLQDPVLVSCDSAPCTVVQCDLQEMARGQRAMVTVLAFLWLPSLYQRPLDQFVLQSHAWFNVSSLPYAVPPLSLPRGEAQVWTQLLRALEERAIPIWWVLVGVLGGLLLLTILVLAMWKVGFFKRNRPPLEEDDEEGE
UniProt P06756, 31-889 limits assumed: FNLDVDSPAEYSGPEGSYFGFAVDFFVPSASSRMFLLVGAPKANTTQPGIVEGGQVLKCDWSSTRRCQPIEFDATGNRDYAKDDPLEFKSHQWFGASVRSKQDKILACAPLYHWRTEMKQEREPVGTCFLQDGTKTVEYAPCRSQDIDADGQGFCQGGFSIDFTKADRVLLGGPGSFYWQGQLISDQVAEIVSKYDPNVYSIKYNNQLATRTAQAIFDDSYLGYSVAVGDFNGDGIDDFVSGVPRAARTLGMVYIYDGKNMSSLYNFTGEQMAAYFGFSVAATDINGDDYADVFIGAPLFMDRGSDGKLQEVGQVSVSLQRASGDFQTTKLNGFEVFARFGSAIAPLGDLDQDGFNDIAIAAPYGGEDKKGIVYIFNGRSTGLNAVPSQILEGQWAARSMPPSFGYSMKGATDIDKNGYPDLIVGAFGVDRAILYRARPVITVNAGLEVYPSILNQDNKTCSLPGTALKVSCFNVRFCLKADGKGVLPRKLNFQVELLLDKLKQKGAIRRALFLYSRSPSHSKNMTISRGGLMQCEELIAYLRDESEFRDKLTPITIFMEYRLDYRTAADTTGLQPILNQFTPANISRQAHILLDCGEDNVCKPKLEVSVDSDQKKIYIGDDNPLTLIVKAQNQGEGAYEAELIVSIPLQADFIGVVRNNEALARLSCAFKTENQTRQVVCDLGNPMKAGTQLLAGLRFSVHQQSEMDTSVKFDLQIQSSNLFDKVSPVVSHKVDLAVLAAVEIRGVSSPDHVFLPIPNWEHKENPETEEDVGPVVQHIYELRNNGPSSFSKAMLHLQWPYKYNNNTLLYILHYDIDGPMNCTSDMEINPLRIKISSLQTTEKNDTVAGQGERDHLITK
UniProt P06756, 891-1048 partner limits assumed: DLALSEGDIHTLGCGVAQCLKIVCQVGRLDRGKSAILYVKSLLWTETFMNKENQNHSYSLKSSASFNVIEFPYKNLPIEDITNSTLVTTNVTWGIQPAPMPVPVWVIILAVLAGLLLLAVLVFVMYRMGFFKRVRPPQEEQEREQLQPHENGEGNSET

Experiments:
[1] = target: GPIIb-IIIa (Homo sapiens, UniProt P05106+P08514); assay: GPIIb-IIIa ELISA purified integrin binding assay (fibrinogen binding); details: read-out: GPIIbIIIa ELISA (IC50 μM); inhibition of biotinylated fibrinogen binding to immobilized purified platelet GPIIb-IIIa
Procedure: (§1) In the following assays, GPIIb-IIIa and vitronectin receptor, αvβ3 were prepared in purified form, by methods described in Fitzgerald, L. A., et al., Anal Biochem (1985) 151: 169-177 and Smith, J. W., J. Biol Chem (1988) 263: 18726-18731 (the disclosure of which is incorporated herein by reference). GPIIb-IIIa or vitronectin receptor, αvβ3, are coated onto microtiter plates. The coated support is then contacted with fibrinogen for the GPIIb-IIIa assay, or is contacted with vitronectin for the vitronectin receptor, αvβ3 and with test materials and incubated for sufficient time to reach maximal ligand binding to immobilized integrins. The adhesive ligands fibrinogen or vitronectin were typically provided at a concentration of 2-50 nM and the test material can, if desired, be added at a series of diultions. Typical incubations were 2-4 hr at 25° C., the time and temperature being interdependent.
(§2) Purified platelet GPIIb-IIIa was prepared by Fitzgerald, L. A., et al., Anal Biochem 151:169-177 (1985). Vitronectin receptor, αvβ3, was prepared as described by Smith, J. W., J. Biol Chem (1988) 263: 18726-18731. After purification, the receptors were each stored in 0.1% Triton X-100 at 0.1-1.0 mg/ml.
(§3) The receptors were coated to the wells of 96-well flat-bottom enzyme-linked immunoassay (ELISA) plates (Linbro EIA-Plus microtiter plate, Flow Laboratories) after diluting 1:200 with a solution of 20 mM Tris-HCl, 150 mM NaCl, 1 mM CaCl2, pH 7.4 to reduce the Triton X-100 concentration to below its critical micellar concentration and adding an aliquot of 100 μl to each well. The wells were allowed to incubate overnight at 4° C., and then aspirated to dryness. Additional sites were blocked by the addition of bovine serum albumin (BSA) at 35 mg/ml in the above buffer for 2 hr at 30° C. to prevent non-specific binding. The wells were then washed once with binding buffer ([…] Tris-HCl, 100 mM NaCl, 2 mM CaCl2, 1 mg/ml BSA).
(§4) The corresponding ligands (fibrinogen, von Willebrand Factor, or vitronectin) were conjugated to biotin using commercially available reagents and standard protocols. The labeled ligands were added to the receptor-coated wells at a final concentration of 2-10 nM (100 μl/well) and incubated for 3 hr at 25° C. in the presence or absence of test samples. After incubation, the wells were aspirated to dryness and bound ligand containing biotin label was quantitated.
(§5) The bound protein was detected by the addition of anti-biotin antibody conjugated to alkaline phosphatase followed by addition of substrate (p-nitrophenyl […] phosphate), and determination of the optical density of each well at […].

[2] = system: ADP-induced aggregation of human platelets (PRP); assay: Platelet aggregation assay (Aggregation-Human/PRP/ADP); details: read-out: PRP (IC50 μM); human platelet rich plasma, ADP 20 μM
Procedure: In addition to the ELISA integrin binding assays described above, the Aggregation-Human/PRP/ADP Assay is useful for evaluating therapeutic compounds.
Platelet rich plasma (PRP) is prepared from healthy human volunteers for use in determining inhibition of platelet aggregation by compounds. Blood was collected via a 21 gauge butterfly cannula, using a two-syringe technique into 1/10 volume of […] trisodium citrate.
Platelet rich plasma was prepared at room temperature by centrifugation of the citrated whole blood at 100×g for 15 minutes. The PRP contained approximately 200-400,000 platelets/μl. Platelet poor plasma was prepared by centrifugation of citrated whole blood at 12,000×g for 2 minutes.
Platelet aggregation was assayed in a Chrono-log whole blood aggregometer (Chrono-log Corporation, Havertown, Pa.) using the PRP prepared above according to the manufacturers directions. Inhibition of platelet aggregation was studied by adding varying amounts of test materials followed by adenosine diphosphate (ADP, 20 μM) to stirred human PRP. Specifically, the human PRP was incubated with the compound for 1-2 min. at 37° C. prior to addition of the aggregating agent ADP.

[3] = target: vitronectin receptor, αvβ3 (Homo sapiens, UniProt P05106+P06756); assay: αvβ3 ELISA purified integrin binding assay (vitronectin binding); details: read-out: αvβ3 ELISA (IC50 μM); inhibition of biotinylated vitronectin binding to immobilized purified αvβ3
Procedure: as §1, §2, §3, §4, §5

| SMILES | IC50 [1] [µM] | IC50 [2] [µM] | IC50 [3] [µM] |
| --- | --- | --- | --- |
| O=C(CNC(=O)C1CCCNC1)NCC(NS(=O)(=O)c1ccccc1)C(=O)O (stereo not drawn) | 10 | 122 | 40 |
| CCCCS(=O)(=O)NC(CNC(=O)CCNC(=O)CCCNC(=N)N)C(=O)O (stereo not drawn) | 0.8 | 4.9 | 0.9 |
| N=C(N)NCCCCC(=O)N1CCC(C(=O)NCC(NS(=O)(=O)c2ccccc2)C(=O)O)CC1 (stereo not drawn) | 0.08 | 0.22 | 3 |
| N=C(N)NCCCC(=O)NC[C@H]1CC[C@H](C(=O)NCC(NS(=O)(=O)c2ccccc2)C(=O)O)CC1 (stereo partly drawn) | 0.075 | 0.55 | 15 |
